Data reported in patent publication US9040533B2, “Oxime-substituted-quinoxaline-type piperidine compounds as ORL-1 modulators” (priority 2012, dated 2015).

Key:
[1] = molecular target: T1, human opioid receptor-like (ORL-1) (Homo sapiens, UniProt P41146); test: In vitro ORL-1 receptor binding assay ([3H]-nociceptin displacement); details: read-out: ORL-1 Ki [Average ± Std Deviation]
kappa opioid receptor = kappa opioid receptor (Homo sapiens, UniProt P41145); test: In vitro kappa-opioid receptor binding assay ([3H]-U69,593 displacement); details: read-out: Kappa opioid receptor Ki [Average ± Std Deviation]
delta opioid receptor = delta opioid receptor (Homo sapiens, UniProt P41143); test: In vitro delta-opioid receptor binding assay ([3H]-Naltrindole displacement); details: read-out: Delta opioid receptor Ki [Average ± Std Deviation]
human μ-opioid receptors = human μ-opioid receptors (Homo sapiens, UniProt P35372); test: In vitro mu-opioid receptor binding assay ([3H]-diprenorphine displacement); details: read-out: Mu opioid receptor Ki [Average ± Std Deviation]
[2] = molecular target: T1, human opioid receptor-like (ORL-1); test: ORL-1 receptor [35S]GTPγS functional binding assay; assay type: biochemical; details: for EC50: read-out: GTPγS ORL-1 EC50 [mean ± SEM]

Row | SMILES | Ki [1] | Ki (kappa opioid receptor) | Ki (delta opioid receptor) | Ki (human μ-opioid receptors) | GTPγS ORL-1 Emax [mean ± SEM] [2] | EC50 [2]
1 | CO/N=C(\C(=O)O)c1nc2ccccc2n([C@H]2C[C@H]3CCC[C@@H](C2)N3C2CC3CCCC(C3)C2)c1=O (stereo partly shown) | 1.86 nM | 1090 nM | > 20000 nM | 4520 nM | 53.0 ± 2.7% | 12 nM
2 | CO/N=C(\CCC(=O)O)c1nc2ccccc2n([C@H]2C[C@H]3CCC[C@@H](C2)N3C2CC3CC(C)CC(C3)C2)c1=O (stereo partly shown) | 2.18 nM | 120 nM | 1610 nM | 11.1 nM | 33.0 ± 2.1% | 4.73 nM
3 | CO/N=C(\CCC(=O)O)c1nc2ccccc2n([C@H]2C[C@H]3CCC[C@@H](C2)N3C2CC3CCCCC(C3)C2)c1=O (stereo partly shown) | 2.24 nM | 139 nM | 3430 nM | 28 nM | 10.67 ± 0.67% | 22.6 nM
4 | O=C(O)/C(=N\OCCO)c1nc2ccccc2n([C@H]2C[C@H]3CCC[C@@H](C2)N3C2CC3CCCC(C3)C2)c1=O (stereo partly shown) [Compound 4] | 5.1 nM | 1210 nM | > 20000 nM | 3070 nM | 41.3 ± 3.7% | 42.2 nM
5 | CCN(CC)C(=O)CO/N=C(\C(=O)O)c1nc2ccccc2n([C@H]2C[C@H]3CCC[C@@H](C2)N3C2CC3CCCC(C3)C2)c1=O (stereo partly drawn) [Compound 5, [4-((1R,3R,7S)-9-bicyclo[3.3.1]non-3-yl-9-aza-bicyclo[3.3.1]non-3-yl)-3-oxo-3,4-dihydro-quinoxalin-2-yl]-diethylcarbamoylmethoxyimino-acetic acid] | 1.22 nM | 74.8 nM | 11600 nM | 472 nM | 70.7 ± 2.9% | 6.73 nM
6 | O=C(O)C(=NOCCO)c1nc2ccccc2n([C@H]2C[C@H]3CCC[C@@H](C2)N3C2CC3CCCCC(C3)C2)c1=O (stereo partly shown) [Compound 15] | 3.37 nM | 152 nM | 11700 nM | 949 nM | 57.33 ± 5.24% | 4.32 nM
7 | CON=C(C(=O)O)c1nc2ccccc2n([C@H]2C[C@H]3CCC[C@@H](C2)N3C2CC3CCCCC(C3)C2)c1=O (stereo partly shown) [Compound 17] | 1.64 nM | 92.1 nM | 4780 nM | 472 nM | 64.5 ± 1.32% | 1.2 nM
8 | O=C(O)C(=NOCCO)c1nc2ccccc2n([C@H]2C[C@H]3CC[C@@H](C2)N3C2CC3CCCCC(C3)C2)c1=O (stereo partly shown) [Compound 19] | 2.92 nM | 422 nM | > 20000 nM | 716 nM | 55.67 ± 4.06% | 18.9 nM
9 | CO/N=C(\C(=O)O)c1nc2ccccc2n([C@H]2C[C@H]3CC[C@@H](C2)N3C2CC3CCCCC(C3)C2)c1=O (stereo partly drawn) [Compound 20, (Z)-2-(4-((1R,3R)-8-(bicyclo[4.3.1]decan-8-yl)-8-azabicyclo[3.2.1]octan-3-yl)-3-oxo-3,4-dihydroquinoxalin-2-yl)-2-(methoxyimino)acetic acid] | 1.57 nM | 258 nM | 8530 nM | 574 nM | 71.7 ± 2.4% | 7.1 nM
10 | CC(=NOCC(=O)O)c1nc2ccccc2n(C2CC3CCC(C2)N3C2CC3CCCCC(C3)C2)c1=O (stereo not shown) [Compound 22] | 7.25 nM | 429 nM | 2600 nM | 620 nM | 36 ± 1.53% | 36.7 nM
11 | C/C(=N\OCC(=O)O)c1nc2ccccc2n([C@H]2C[C@H]3CCC[C@@H](C2)N3C2CC3CCCCC(C3)C2)c1=O (stereo partly drawn) [Compound 24, 2-((E)-1-(4-((1R,3R)-9-(bicyclo[4.3.1]decan-8-yl)-9-azabicyclo[3.3.1]nonan-3-yl)-3-oxo-3,4-dihydroquinoxalin-2-yl)ethylideneaminooxy)acetic acid] | 2.01 nM | 80.7 nM | 1590 nM | 137 nM | 29.7 ± 2.3% | 6.4 nM
12 | CC[C@@H]1C[C@H]2CC(N3[C@@H]4CCC[C@H]3CC(n3c(=O)c(/C(CCC(=O)O)=N/OC)nc5ccccc53)C4)C[C@@H](C1)C2 (stereo partly shown) [Compound 25] | 3.48 nM | 72.1 nM | 2450 nM | 22.1 nM | 42 ± 1.53% | 15.7 nM
13 | CC1CC2CC(C1)CC(N1[C@@H]3CCC[C@H]1C[C@@H](n1c(=O)c(/C(CCC(=O)O)=N/OCCCN(C)C)nc4ccccc41)C3)C2 (stereo partly shown) [Compound 28] | 2.22 nM | 9.3 nM | 11500 nM | 107 nM | 54.7 ± 2.0% | 6.03 nM
14 | CCON=C(C(=O)O)c1nc2ccccc2n([C@H]2C[C@H]3CCC[C@@H](C2)N3C2CC3CCCC(C3)C2)c1=O (stereo partly shown) [Compound 30] | 3.78 nM | 406 nM | > 20000 nM | 825 nM | 39 ± 4.92% | 39.8 nM
15 | CC(C)ON=C(C(=O)O)c1nc2ccccc2n([C@H]2C[C@H]3CCC[C@@H](C2)N3C2CC3CCCC(C3)C2)c1=O (stereo partly shown) [Compound 31] | 4.08 nM | 147 nM | 3640 nM | 358 nM | 32.25 ± 3.77% | 81.4 nM
16 | CC(C)O/N=C(\C(=O)O)c1nc2ccccc2n([C@H]2C[C@H]3CCC[C@@H](C2)N3C2CC3CCCCC(C3)C2)c1=O (stereo partly drawn) [Compound 33, 2-(4-((1R,3R)-9-(bicyclo[4.3.1]decan-8-yl)-9-azabicyclo[3.3.1]nonan-3-yl)-3-oxo-3,4-dihydroquinoxalin-2-yl)-2-(isopropoxyimino)acetic acid] | 2.18 nM | 41.1 nM | 4270 nM | 134 nM | 63 ± 1% | 27.7 nM
17 | CC[C@@H]1C[C@H]2CC(N3[C@@H]4CCC[C@H]3CC(n3c(=O)c(/C(CCC(=O)O)=N/OCCCN(C)C)nc5ccccc53)C4)C[C@@H](C1)C2 (stereo partly shown) [Compound 35] | 10.8 nM | 14.2 nM | 11000 nM | 120 nM | 53.67 ± 3.18% | 40 nM
18 | CNC(=O)C(=NOCC(=O)O)c1nc2ccccc2n([C@H]2C[C@H]3CCC[C@@H](C2)N3C2CC3CCCCC(C3)C2)c1=O (stereo partly shown) [Compound 54] | 3.53 nM |  |  |  | 21.33 ± 0.33% | 91.2 nM
19 | NC(=O)C(=NOCC(=O)O)c1nc2ccccc2n([C@H]2C[C@H]3CCC[C@@H](C2)N3C2CC3CCCCC(C3)C2)c1=O (stereo partly shown) [Compound 55] | 1.64 nM |  |  |  | 13.33 ± 1.2% | 16.4 nM
20 | N#CC(=NOCC(=O)O)c1nc2ccccc2n([C@H]2C[C@H]3CCC[C@@H](C2)N3C2CC3CCCC(C3)C2)c1=O (stereo partly drawn) [Compound 65, 2-((((4-((1R,1′R,3r,3′R,5S,5′S)-[3,9′-bi(9′-azabicyclo[3.3.1]nonan)]-3′-yl)-3-oxo-3,4-dihydroquinoxalin-2-yl)(cyano)methylene)amino)oxy)acetic acid] | 4.88 nM |  |  |  | −1% | 
21 | NC(=O)CO/N=C(\C(N)=O)c1nc2ccccc2n([C@H]2C[C@H]3CCC[C@@H](C2)N3C2CC3CCCCC(C3)C2)c1=O (stereo partly shown) [Compound 66] | 0.41 nM |  |  |  | 21.67 ± 2.03% | 1.81 nM
22 | CC(C)ON=C(CCC(=O)O)c1nc2ccccc2n([C@H]2C[C@H]3CC[C@@H](C2)N3C2CC3CCCCC(C3)C2)c1=O (stereo partly shown) [Compound 67] | 8.77 nM | 104 nM | 11100 nM |  | 27 ± 1.15% | 27.6 nM
